Measurements published in patent US7122326B2 (Universite Louis Pasteur, priority 2001, dated 2006).

What was measured:
[1] = tested on: rat; details: in vivo
[2] = tested on: xanthurenic acid receptor(s); type: cell-based
[3] = tested on: xanthurenic acid binding site(s); experiment: [3H]-XA binding to synaptic membranes, without ions; parameters: species or system rat; details: pH 7.4

## O=C(O)c1cc(O)c2cccc(O)c2n1 [XA, xanthurenic acid]
[1]
  EEG: epileptogenic or deep NREM sleep activity: did not show evidence of “epileptogenic” or “deep NREM sleep” activity
[2]
  inversion potential of the activated current: 2.6±2.5 mV
  inversion potential of the current activated in the presence of xanthurenic acid: −51.6±2.1
[3]
  koff (dissociation constant): 0.33±0.07 min^−
